According to ChEMBL document CHEMBL1150326 (Bioorg Med Chem, 2008):

Tests used:
[1] = system: CCRF-CEM; experiment: Cytotoxicity against vinblastine-resistant human CCRF-CEM cells after 72 hrs by XTT assay
[2] = system: CCRF-CEM; experiment: Cytotoxicity against taxol-resistant human CCRF-CEM cells after 72 hrs by XTT assay
[3] = system: MX1; experiment: Cytotoxicity against human MX1 cells after 72 hrs by SRB assay; format: functional, cell-based
Outline: (§1)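 Solid tumour cells (breast MX-1, colon HCT116) exposed for 72 h. Growth measured by SRB assay. IC50 obtained by median-effect plot from six or seven concentrations, in duplicate or triplicate.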

[4] = system: CCRF-CEM; experiment: Cytotoxicity against human CCRF-CEM cells after 72 hrs by XTT assay; format: functional, cell-based
Outline: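 Leukaemic CCRF-CEM cells and their taxol- and vinblastine-resistant sublines exposed for 72 h. XTT assay read at 450 and 630 nm after 6 h with phenazine methosulfate-XTT at 37 °C. IC50 obtained by the median-effect principle from six or seven concentrations, in duplicate or triplicate.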

[5] = system: HCT-116; experiment: Cytotoxicity against human HCT116 cells after 72 hrs by SRB assay; format: functional, cell-based; outline: as §1

For `Nc1ccc(N(CCCl)CCCl)cc1`, the IC50 [1] was 25.7 nM, the IC50 [2] was 33.8 nM and the IC50 [3] was 84.4 nM. It also gave an IC50 [4] of 43.4 nM and an IC50 [5] of 341 nM.
